Protein sequences, listed by entry. Tags and fused reporters are not part of them.
UniProt P34969, whole entry: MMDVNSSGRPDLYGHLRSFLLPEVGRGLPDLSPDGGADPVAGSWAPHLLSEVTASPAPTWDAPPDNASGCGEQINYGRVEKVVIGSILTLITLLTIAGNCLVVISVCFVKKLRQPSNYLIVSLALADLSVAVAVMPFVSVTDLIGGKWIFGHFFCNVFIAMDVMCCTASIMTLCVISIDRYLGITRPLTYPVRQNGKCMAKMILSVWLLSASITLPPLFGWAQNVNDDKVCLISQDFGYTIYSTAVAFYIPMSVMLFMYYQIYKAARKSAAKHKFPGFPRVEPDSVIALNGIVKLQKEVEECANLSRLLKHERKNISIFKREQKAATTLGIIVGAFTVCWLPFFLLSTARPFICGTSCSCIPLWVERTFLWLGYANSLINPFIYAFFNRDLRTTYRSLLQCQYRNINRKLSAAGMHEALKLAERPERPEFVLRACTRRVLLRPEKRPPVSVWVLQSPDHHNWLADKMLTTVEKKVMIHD

In patent US9663464B2, “Carbazole derivatives acting on 5-HT7 receptor” (KOREA INSTITUTE OF SCIENCE AND TECHNOLOGY, priority 2015, dated 2017):

Target: T1, human gene recombinant 5-HT7 receptor expressed in CHO cells (Homo sapiens, UniProt P34969)
T1 construct: expressed in transfected cells; host or cells: CHO cells (membrane preparation)
Test: Binding affinity for the 5-HT7 serotonin receptor ([3H]LSD radioligand)
Method: In this example, the human gene recombinant 5-HT7 receptor expressed in CHO cells was used. 1 nM [^3H]LSD, 5-HT7 receptor membrane (15 μg/well), a test drug, 10 mM MgCl2, 50 mM Tris-HCl buffer (pH 7.4) containing 0.1 mM EDTA, etc. were added to a vessel until the final volume reached 0.25 ml. The test drug was used at various concentrations. The mixture was cultured at 25° C. for 90 min. The culture was rapidly filtered through a Whatman GF/C glass fiber filter, which had been previously wetted with 0.3% polyethyleneimine using a Brandel harvester, to quench the reaction. The reaction mixture was washed with cold 50 mM Tris-HCl buffer. The filter was covered with MeltiLex, sealed in a sample bag, and dried in an oven. Counting was performed using MicroBeta (Wallac) and nonspecific binding was measured in the presence of […]. The K value of the test drug was obtained from nonlinear regression analysis (GraphPad Prism Program, San Diego, USA) of isotherms obtained by repeatedly performing the experiment on the drug at 10-11 stage concentrations in two test tubes (each twice).
The % inhibition values of the inventive compounds having different Y structures at a concentration of 10 μM against the 5-HT7 serotonin receptor were measured. […]

## CN(CCCCCC(=O)n1c2ccccc2c2ccccc21)Cc1ccccc1 [Example 2.2, 6-(Benzyl)methyl)amino)-1-(9H-carbazol-9-yl)hexan-1-one hydrochloride]
  Ki: 604 nM

## CC1CCN(CCCCCC(=O)n2c3ccccc3c3ccccc32)CC1 [Example 2.4, 1-(9H-carbazol-9-yl)-6-(4-methylpiperidin-1-yl)hexan-1-one]
  Ki: 364 nM

Where a name gives a salt, the structure may show the parent alone.
